Source: patent US5677432A, “Immunological detection of organophosphates” (dated 1997)

What was measured:
[1] = tested on: antisera to azinphos immunoconjugate; test: Competition ELISA, polyclonal sera from mice immunized with azinphos immunoconjugate
[2] = tested on: MAb 10H12 raised against parathion immunoconjugate; test: Competitive ELISA with peroxidase-labelled MAb 10H12
[3] = tested on: antisera to paraoxon immunoconjugate; test: Competition ELISA, polyclonal sera from mice immunized with paraoxon immunoconjugate; settings: for cross reaction (in words): any sera from mice injected with paraoxon-hapten immunoconjugates
[4] = tested on: antisera to parathion immunoconjugate; test: Competition ELISA, polyclonal sera from mice immunized with parathion immunoconjugate; settings: for competition / cross reactivity (in words): all mouse sera
[5] = tested on: MAb 4D4 raised against parathion immunoconjugate; test: Competitive ELISA with peroxidase-labelled MAb 4D4
[6] = tested on: MAb 8B1 raised against parathion immunoconjugate; test: Competitive ELISA with peroxidase-labelled MAb 8B1
[7] = tested on: MAb 9D11 raised against azinphos immunoconjugate; test: Competitive ELISA with peroxidase-labelled MAb 9D11
[8] = tested on: MAb 7E10 raised against azinphos immunoconjugate; test: Competitive ELISA with peroxidase-labelled MAb 7E10
[9] = tested on: antisera to chlorpyrifos immunoconjugate; test: Competition ELISA, polyclonal sera from mice immunized with chlorpyrifos immunoconjugate
[10] = tested on: MAb 8G8 raised against azinphos immunoconjugate; test: Competitive ELISA with peroxidase-labelled MAb 8G8
[11] = tested on: MAbs raised against the azinphos immunoconjugate; test: Competitive ELISA, MAbs against azinphos immunoconjugate taken together
[12] = tested on: MAbs raised against the parathion immunoconjugate; test: Competitive ELISA, MAbs against parathion immunoconjugate taken together; settings: under the assay conditions given
[13] = sera to azinphos immunoconjugate

Q: How did the I20 ([1]; competition with hapten) turn out when `CC1(COCC(=O)O)COP(=S)(SCn2nnc3ccccc3c2=O)OC1` (centres unmarked) was run?
A: 1 to 2 ng/mL

Q: And the I50 ([1]; competition with hapten)?
A: 6-10 ng/mls

Q: What about the I80 ([1]; competition with hapten) of the same molecule?
A: 0.06 to 0.1 µg/mL

Q: What does the source list for `CCOP(=O)(OCC)Oc1ccc([N+](=O)[O-])cc1`?
A: detection relative to parathion [2]: 100%; reaction / cross-reactivity (in words) [2]: reacted equally well; I20 ([3]; mouse 1 serum): 1200 ng/mL; I50 ([3]; mouse 1 serum): 8.1 µg/mL; I80 ([3]; mouse 1 serum): 46 µg/mL; I20 ([3]; mouse 2): 710 ng/mL; I50 ([3]; mouse 2): 2.2 µg/mL; I80 ([3]; mouse 2): 105 µg/mL; I20 ([3]; mouse 3 serum): 1200 ng/mL; I50 ([3]; mouse 3 serum): 8 µg; I80 ([3]; mouse 3 serum): 43 µg/mL; I20 ([3]; mouse 4): 200 ng/mL; I50 ([3]; mouse 4): 2 µg/mL; I80 ([3]; mouse 4): 23 µg/mL; competition / cross reactivity (in words) [4]: only low levels of cross-reactivity; cross reaction ([4]; mouse 3 and 4 sera): no cross reaction; detection relative to parathion [5]: 2%; reaction / cross-reactivity (in words) [5]: only low levels of cross-reactivity; detection relative to parathion [6]: 2%; reaction / cross-reactivity (in words) [6]: only low levels of cross-reactivity

Q: With `CCOP(=S)(OCC)SCn1nnc2ccccc2c1=O` as the molecule, how does the “reaction relative to azinphos methyl” value [7] read?
A: 30%

Q: What about the “reaction relative to azinphos methyl” value [8] of the same molecule?
A: 30%

Q: What about the Competition ([9]; at concentrations up to 100 μg/ml) of the same molecule?
A: neither parathion, paraoxon, azinphos methyl nor azinphos ethyl could compete at 100 μg/ml

Q: What about the “cross reaction (in words)” value [3] of the same molecule?
A: No cross reaction was observed

Q: And the “relative competitiveness (azinphos ethyl vs azinphos methyl)” value [1, 13]?
A: slightly more competitive than azinphos methyl

Q: What about the “reaction relative to azinphos methyl” value [10] of the same molecule?
A: 30%

Q: Which results are given for `CC1(COCC(=O)O)COP(=O)(Oc2ccc([N+](=O)[O-])cc2)OC1` (centres unmarked)?
A: I20 ([3]; competition with hapten): 2 ng/mL; I50 ([3]; competition with hapten): 0.02 µg/mL; I80 ([3]; competition with hapten): 0.1 µg/mL

Q: How did the “detection relative to parathion” value [2] turn out when `COP(=S)(OC)Oc1ccc([N+](=O)[O-])c(C)c1` was run?
A: 80%

Q: What about the “detection relative to parathion” value [5] of the same molecule?
A: 30%

Q: And the “detection relative to parathion” value [6]?
A: 30%

Q: `COP(=S)(OC)SCn1nnc2ccccc2c1=O` was tested. Which “range that could be quantitated” value ([11]; under the assay conditions given) did it give?
A: picogram to low ng range

Q: And the “cross reaction (in words)” value [3]?
A: No cross reaction was observed

Q: And the “competition / cross reactivity (in words)” value [4]?
A: no competition was observed

Q: What about the I20 ([1]; mouse 1 and 3 sera) of the same molecule?
A: 400 ng/mL

Q: And the I50 ([1]; mouse 1 and 3 sera)?
A: 4 µg/mL

Q: And the I80 ([1]; mouse 1 and 3 sera)?
A: 30 µg/mL

Q: And the I20 ([1]; mouse 2 serum)?
A: 800 ng/mL

Q: What about the I50 ([1]; mouse 2 serum) of the same molecule?
A: 20 µg/mL

Q: And the I80 ([1]; mouse 2 serum)?
A: 120 µg/mL

Q: What about the I20 ([1]; mouse 4 serum) of the same molecule?
A: 20 ng/mL

Q: What about the I50 ([1]; mouse 4 serum) of the same molecule?
A: 0.8 µg/mL

Q: What about the I80 ([1]; mouse 4 serum) of the same molecule?
A: 34 µg/mL

Q: And the “relative competitiveness (azinphos ethyl vs azinphos methyl)” value [1, 13]?
A: only marginally less effective than azinphos ethyl

Q: For `O=[N+]([O-])c1ccc(O)cc1`, which “reaction / cross-reactivity (in words)” value [5] is on record?
A: no detectable reaction

Q: And the “reaction / cross-reactivity (in words)” value [6]?
A: no detectable reaction

Q: With `CCOP(=S)(OCC)Oc1nc(Cl)c(Cl)cc1Cl` as the molecule, how does the I20 ([9]; sera of mouse 1 and 2) read?
A: 60 ng/mL

Q: What about the I50 ([9]; sera of mouse 1 and 2) of the same molecule?
A: 300 ng/mL

Q: And the I80 ([9]; sera of mouse 1 and 2)?
A: 1500 ng/mL

Q: And the I20 ([9]; sera of mouse 3 and 4)?
A: 25 ng/mL

Q: What about the I50 ([9]; sera of mouse 3 and 4) of the same molecule?
A: 150 ng/mL

Q: What about the I80 ([9]; sera of mouse 3 and 4) of the same molecule?
A: 860 ng/mL

Q: And the “cross reaction (in words)” value [3]?
A: No cross reaction was observed

Q: What about the “competition / cross reactivity (in words)” value [4] of the same molecule?
A: no competition was observed

Q: What about the “competition / cross reactivity (in words)” value ([4]; listed as Chlorpyrifos) of the same molecule?
A: no cross reactivity

Q: And the “cross reaction (in words)” value [1, 13]?
A: no cross reaction

Q: Which results are given for `CC1(COCC(=O)O)COP(=S)(Oc2nc(Cl)c(Cl)cc2Cl)OC1` (centres unmarked)?
A: I20 ([9]; all mice): 1 ng/mL; I50 ([9]; all mice): 20 ng/mL; I80 ([9]; all mice): 100 ng/mL

Q: Which results are given for `CCOP(=S)(OCC)Oc1ccc([N+](=O)[O-])cc1`?
A: cross-reactivity (in words) ([11]; MAb-based assays): no cross-reactivity; reaction / cross-reactivity (in words) [2]: reacted equally well; I20 ([4]; mouse 1 serum): 80 ng/mL; I50 ([4]; mouse 1 serum): 1.2 µg/mL; I80 ([4]; mouse 1 serum): 16 µg/mL; I20 ([4]; mouse 2 serum): 60 ng/mL; I50 ([4]; mouse 2 serum): 0.8 µg/mL; I80 ([4]; mouse 2 serum): 11 µg/mL; I20 ([4]; mouse 3 serum): 300 ng/mL; I50 ([4]; mouse 3 serum): 4 µg/mL; I80 ([4]; mouse 3 serum): 31 µg/mL; I20 ([4]; mouse 4 serum): 350 ng/mL; I50 ([4]; mouse 4 serum): 2.1 µg/mL; I80 ([4]; mouse 4 serum): 33 µg/mL; cross reaction relative to azinphos methyl [1, 13]: 1-2%; cross reaction relative to azinphos methyl ([1]; sera to azinphos immunoconjugate, listed as Parathion): 1-2%; range that could be quantitated [12]: ng to low μg/ml

Q: `CC1(COCC(=O)O)COP(=S)(Oc2ccc([N+](=O)[O-])cc2)OC1` (centres unmarked) was tested. Which I20 ([4]; competition with hapten) did it give?
A: 1 to 2 ng/mL

Q: And the I50 ([4]; competition with hapten)?
A: 0.02 to 0.025 µg/mL

Q: And the I80 ([4]; competition with hapten)?
A: 0.08 to 0.1 µg/mL
